In this data set the test system is T1, Peptide 1.
T1 sequence: CCSLCCNPACTGCY

Potato acid phosphatase (PoAP) registered a Peptide 1 Dephospho (%), LC-MS after phosphatase treatment, pH 5 of 22.1% and a Peptide 1 Remaining (%), LC-MS after phosphatase treatment, pH 5 of 77.8%.
